# scFv variants of Ab-14 (light chain) against a SARS-CoV-2 spike peptide

All variants were tested on one target, the spike HR2 peptide PDVDLGDISGINAS (SARS-CoV-2).

Each scFv is VH, a 15-residue (Gly4Ser)3 linker, VL, as in the parent Ab-14, and differs from it in the CDRs of the light chain only.
VH: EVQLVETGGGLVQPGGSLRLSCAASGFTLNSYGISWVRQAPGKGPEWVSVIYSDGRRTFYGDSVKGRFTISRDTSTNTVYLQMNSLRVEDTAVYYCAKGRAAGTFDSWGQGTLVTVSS
VL: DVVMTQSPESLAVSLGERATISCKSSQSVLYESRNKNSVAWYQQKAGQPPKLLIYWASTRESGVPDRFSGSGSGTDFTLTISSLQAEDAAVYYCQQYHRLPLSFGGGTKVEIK

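The starting antibody came from a phage panning campaign against this peptide. These sequences belong to a second round, designed from the earlier measurements on random variants of the parent. Group labels follow the data file (Ctrl: baseline library sampled from a position-specific scoring matrix, with some repeated check sequences; En: ensemble of fine-tuned language models; GP: Gaussian process model; HC: hill climbing; Gen: genetic algorithm; Gibbs: Gibbs sampling; a sequence that several methods proposed may carry one label only). Affinity was read by AlphaSeq, a pooled yeast mating assay with surface-displayed partners. The frequency of each diploid, read from paired DNA barcodes, reflects how well the two displayed proteins bind. Each replicate has its own calibration line, from reference interactions of the BCL2 family. The assay was run in six technical replicates.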

Variants are written as CDR1, CDR2 and CDR3 of the light chain (limits as in the source). Parent: KSSQSVLYESRNKNSVA, WASTRES, QQYHRLPLS.
Affinities are written as log10 Kd with Kd in nM; a lower number is a better binder.
The mean shown is taken over the replicates in which the pair was detected.
"not detected" marks a missing value. The strain was present, yet no cells mated with the target were sequenced in any replicate, which points to weak or no binding.

CDR-L1,CDR-L2,CDR-L3,group,mean log10 Kd (nM),detected,control signals
KITSHIREGTADNNAMA,NADVSND,QQYSRLPLF,En_Gibbs,0.67,6 of 6,1 of 18
KQSQSVLYESRNKNAVA,NASTRES,QQYHRLPLS,GP_HC,0.56,6 of 6,0 of 18
KSSQSVLYESRNKNSVA,EASTRCS,QQYHRLPLS,GP_Gen,0.26,6 of 6,0 of 18
NVNVSEDQWPSSKNAIA,QTTCRVL,QQYAHLPLS,En_Gibbs,0.63,6 of 6,0 of 18
MVTLQLRPGHEHQNPIA,EASHRAA,QQYAHLPLG,En_Gibbs,1.32,6 of 6,0 of 18
QFDTNLHYMGANKNSVA,EMTERTT,QQYHRLPIE,En_Gibbs,1.22,6 of 6,1 of 18
TLTQVTMVESYNKNSVA,QASTRLE,QSYHRLPLS,En_HC,1.23,6 of 6,0 of 18
KMSQENPYEDRNSNSVA,HASTREM,QQYHRLPLS,GP_Gibbs,0.14,6 of 6,2 of 18
KMSQSVLYESVNKNSVA,DASTRES,QQYHRLPLS,GP_HC,0.35,6 of 6,0 of 18
KISQMVRVGSTVSNSIA,EEVTRAK,QQYHRLPLA,En_Gen,1.36,6 of 6,1 of 18
KSSQSWLYESRNKNSVA,GASLREV,QQYHRLPLS,GP_HC,-0.04,6 of 6,1 of 18
RLKCTSTEHGAQKHAIA,EQVKLNT,QQYGRLPLS,En_Gibbs,1.48,6 of 6,0 of 18
KSSQSVLYESFNKNSVA,AASTRES,QQYHRLPLY,Ctrl,1.87,1 of 6,0 of 18
IISQVDAYEMRNKNSIA,DQSTRGS,QQYDRLPLS,En_HC,0.61,6 of 6,1 of 18
TLYGLTNSMSKNKNNVA,EMSTREA,QQYDRLPLM,En_Gen,0.80,6 of 6,1 of 18
KSLQSQLYESRNKNSVA,HASTRED,QLYHRLPLI,GP_HC,0.92,6 of 6,0 of 18
QSSQSVLYESRNKNSVA,DASTRPS,QQYHRLPLS,Ctrl,0.39,6 of 6,1 of 18
KSSQSVTYESANKNSVA,WANTRES,QQYHRLPLD,Ctrl,not detected,0 of 6,1 of 18
KYSNSVLYDSRLKNSVA,EASTRES,QQYHRMPLS,Ctrl,0.62,6 of 6,0 of 18
HLAAMWGLESVKPNNVA,ENSTRED,QQYDRLPLS,En_Gen,not detected,0 of 6,0 of 18
KLSMITGHMHMSKNNVA,EMVTRVN,QQYNRLPLS,En_Gen,0.00,6 of 6,1 of 18
KSEYSCLGESRNCNSVA,SASTREL,QQYHRLPLS,GP_Gibbs,0.66,6 of 6,1 of 18
KFGQSVLMGSYVRNSVA,QTSTREN,QQYDRLPLS,En_HC,1.68,6 of 6,1 of 18
KLYQVGLGSQKVDRSIA,ETSTRCT,QSYQRLPLS,En_Gibbs,1.34,5 of 6,0 of 18
TLMQVGGYESNAHNSIA,DLRTRES,QQYHRLPLS,En_HC,0.78,6 of 6,0 of 18
KLQQSVLYESRNKNAVA,GASTRES,QQYHRLPLS,GP_Gen,-0.25,6 of 6,2 of 18
ALTFPEESVDHHMNSIA,STEKLCM,QQYARLPLS,En_Gibbs,0.33,6 of 6,2 of 18
KSSQSVLYNQRNKNSVA,WASTRES,QQYHRLPLS,Ctrl,not detected,0 of 6,0 of 18
KIGQMVTGETHNKNSIA,QMTTREG,QQYHRLPLS,En_HC,0.53,6 of 6,0 of 18
KSSFSELFESRNKNSVA,DASTRES,QQYHRLPLS,GP_HC,0.20,6 of 6,0 of 18
KSSQSQLYESRNKNSVA,GASTRES,QDYHRLTLS,GP_HC,-0.07,6 of 6,2 of 18
KISQSVLYESRNKNSVA,WASTRES,QMYHRLPLS,Ctrl,1.53,6 of 6,0 of 18
KSGQGVLYESRNKNSVA,GVSTRES,QQYHRLPLS,GP_HC,-0.07,6 of 6,3 of 18
KLRLSQEYESRQKNSVA,NASTRCS,QQYHRLPLS,GP_Gibbs,0.10,6 of 6,1 of 18
KLSQSVLFEPRNKNSVA,DASTRES,QQYHRLPLS,GP_HC,-0.64,6 of 6,0 of 18
KLEQSQLYESRNCNSVA,NASTRES,QQYHRLPLS,GP_Gen,1.30,6 of 6,1 of 18

Continued, with the values leading:

mean log10 Kd (nM),detected,control signals,CDR-L1,CDR-L2,CDR-L3,group
not detected,0 of 6,0 of 18,KSSDGVLYESTNQNSVA,EASTRES,QQYHRLILS,Ctrl
-0.19,6 of 6,0 of 18,KFEQGVLYESRNKGSVA,GASVRES,QQYHRLPLS,GP_HC
0.71,6 of 6,5 of 18,KSSQGVTLESRNKNSVA,NASTRES,QQYHRLPLS,Ctrl
0.46,6 of 6,1 of 18,KVSQSMLIWSRNSNSVA,NASTREH,QQYHRLPLS,GP_Gibbs
0.94,6 of 6,2 of 18,KCSQSVLEESRNKNSVA,WASTRES,QQYHRLPLS,Ctrl
0.33,6 of 6,1 of 18,KSSQKVLYESNNKNSVA,DASTRES,QQYHRLPLS,Ctrl
not detected,0 of 6,0 of 18,MISQLMNYGQFAINSVA,QATIRNS,QQYDRLPLA,En_Gen
1.90,3 of 6,0 of 18,KLSQSVRMESFNKDNVA,ENSTREA,QDYHRLPLS,En_HC
0.77,6 of 6,0 of 18,KIYAASMLESTDKNSIA,DLTNRGN,QQYHRLPLS,En_HC
0.08,6 of 6,0 of 18,AVSQSTLYEDGNSNSVA,NASVRES,QQYHRLPLS,GP_Gibbs
not detected,0 of 6,0 of 18,KSSQSVLYESRNKNSVA,SASTRES,QQYHRTPLS,Ctrl
1.19,5 of 6,1 of 18,MLALPQKELGYAKDAVA,DGSIRLG,QQYHRLPLT,En_Gibbs
1.65,6 of 6,0 of 18,MITQLMNMGQFAINSVA,QASIRNE,QQYDRLPLV,En_Gen
0.02,6 of 6,1 of 18,KLSPSWLYEERNDNSVA,NASQRES,QDYHRLPLS,GP_Gibbs
0.30,6 of 6,1 of 18,KLSMITGHLSIAKNNVA,EMETREN,QQYERLPLS,En_Gen
2.20,1 of 6,0 of 18,IVSQMMLWGMHLKNSIA,EAQTRLN,QQYDRLPLF,En_Gen
-0.33,6 of 6,0 of 18,KLSQEMEYESRNKNSVA,HASERES,QDYHRLPLQ,GP_Gibbs
1.00,6 of 6,0 of 18,MISQLMNMGTFAINSVA,QASIRNE,QQYDRLPLQ,En_Gen
0.38,6 of 6,1 of 18,KLSMITGHMSVSKNNVA,EMATREN,QQYNRLPLS,En_Gen
1.89,5 of 6,1 of 18,AHDHTEGSGKNADANVA,GDEQRAP,QQYHHLPLS,En_Gibbs
1.88,5 of 6,1 of 18,HMSMLTLQGMRHRNSVA,QMTTREN,QQYDHLPLS,En_Gen
2.31,2 of 6,0 of 18,KSYQSLLYESRPKNSVA,WASTRES,QQYHRLPLS,Ctrl
0.71,6 of 6,0 of 18,MVSMNIGGEYRNRDNVA,HASNREN,QCYDRLPLS,En_Gen
2.84,3 of 6,3 of 18,KSSQSVLPESRNKSSVA,WASTRES,QQYHRLPLS,Ctrl
-0.17,6 of 6,2 of 18,KCSQKVDYEDRNMNNVA,NASTRES,QDYHRLPLS,GP_Gibbs
not detected,0 of 6,0 of 18,KFSQSVTYESRMKNSVA,WISTRPH,QQYHRAPLS,Ctrl
1.75,5 of 6,0 of 18,MMSQVTGQGMTHRNNVA,QTSTREP,QQYDRLPLV,En_Gen
0.41,6 of 6,0 of 18,KLSQSVEYESRNKNSVA,NASTREY,QAYHRLPLA,GP_Gibbs
-0.07,12 of 12,5 of 36,KVSQSVLYESRNKNSVA,NASTRES,QQYHRLPLS,Ctrl+GP_Gen
0.63,6 of 6,0 of 18,IITQSVMTESKNKRNVA,NTSEREP,QQYDRLPLI,En_HC
0.99,6 of 6,0 of 18,KISQMVTYESTWWNAIA,QTSEREE,QQYHRLPLS,En_HC
2.24,1 of 6,0 of 18,KSSQSVLYESRNKNSVA,WASTRES,KQYHRLPLS,Ctrl
-0.43,6 of 6,1 of 18,KVSGSHLYESRNKNSVA,DASTRES,QQYHRLPLS,GP_Gen
0.88,6 of 6,0 of 18,HMSMLTLGGMRARNSVA,QMTTREN,QQYDRLPLT,En_Gen
not detected,0 of 6,0 of 18,KLRQVSEYESFNKNSVA,QTETREN,QDYDRLPLS,En_HC
0.21,6 of 6,1 of 18,KTYVSDLYESRNKNSVA,NASERES,QQYHRLPLS,GP_Gibbs

For reference, 11 entries of the list once more:

CDR-L1,CDR-L2,CDR-L3,group,mean log10 Kd (nM),detected,control signals
KMSQENPYEDRNSNSVA,HASTREM,QQYHRLPLS,GP_Gibbs,0.14,6 of 6,2 of 18
QSSQSVLYESRNKNSVA,DASTRPS,QQYHRLPLS,Ctrl,0.39,6 of 6,1 of 18
KLRLSQEYESRQKNSVA,NASTRCS,QQYHRLPLS,GP_Gibbs,0.10,6 of 6,1 of 18
KSSQSWLYESRNKNSVA,GASLREV,QQYHRLPLS,GP_HC,-0.04,6 of 6,1 of 18
KLQQSVLYESRNKNAVA,GASTRES,QQYHRLPLS,GP_Gen,-0.25,6 of 6,2 of 18
KLSMITGHMSVSKNNVA,EMATREN,QQYNRLPLS,En_Gen,0.38,6 of 6,1 of 18
IISQVDAYEMRNKNSIA,DQSTRGS,QQYDRLPLS,En_HC,0.61,6 of 6,1 of 18
KSSQSQLYESRNKNSVA,GASTRES,QDYHRLTLS,GP_HC,-0.07,6 of 6,2 of 18
KLYQVGLGSQKVDRSIA,ETSTRCT,QSYQRLPLS,En_Gibbs,1.34,5 of 6,0 of 18
MMSQVTGQGMTHRNNVA,QTSTREP,QQYDRLPLV,En_Gen,1.75,5 of 6,0 of 18
KITSHIREGTADNNAMA,NADVSND,QQYSRLPLF,En_Gibbs,0.67,6 of 6,1 of 18

In the paper, a design with two or fewer of six values counts as a poor binder.
Empty control strains, which show no peptide, gave a signal in 4% of pairings with all light chain designs; the median was 2.64 and 95% of these signals were weaker than 1.59. No background was subtracted. For each scFv, signals with the empty controls are counted beside the result.
A sequence measured in both rounds can read differently, since the two assays cover different ranges.
The parent sequence was in this pool as ten entries: three were never detected, three once, and four in most replicates, with averages from 0.34 to 2.37.
A sequence that the file lists under several names has all its replicates pooled.

Reference: Li et al. 2023, doi:10.1038/s41467-023-39022-2. File: FLAb, binding data.